In patent US20260007681A1, “INDOLE DERIVATIVES AS ESTROGEN RECEPTOR DEGRADERS” (REGENTS OF THE UNIVERSITY OF MICHIGAN, priority 2022, published 2026):

Legend:
ER in MCF-7 cells = ER in MCF-7 cells (Homo sapiens (Human), UniProt P03372); experiment: In-cell western (ICW) ER degradation assay in MCF-7 cells (Compounds A1-A70); type: cell-based; settings: read-out: MCF7 ICW DC50, 16 hrs treatment, 0.02 to 300 nM
ER in T47D cells = ER in T47D cells (Homo sapiens (Human), UniProt P03372); experiment: In-cell western (ICW) ER degradation assay in T47D cells (Compounds A1-A70); type: cell-based; settings: read-out: T47D ICW DC50, 16 hrs treatment, 0.02 to 300 nM

COc1cc(N2CCC3(CCN(C(=O)CN4Cc5cnc(C(=O)N[C@H]6CCC(=O)NC6=O)cc5C4)CC3)CC2)ccc1[C@@H]1c2[nH]c3ccccc3c2C[C@@H](C)N1CC(F)F
DC50 (ER in MCF-7 cells): < 1 nM | DC50 (ER in T47D cells): < 1 nM
